According to US12233159B2, “Astaxanthin nanoemulsion and manufacturing method thereof” (priority 2021, dated 2025):

System: human foreskin fibroblast cells
Test: Cell toxicity by MTT assay
Format: cell-based
Conditions: TPGS over 1 mg/mL, 24 hrs
Protocol: Cell toxicity of the TAP-nanoemulsion was determined by 3-(4,5-Dimethylthiazol-2-yl)-2,5-diphenyltetrazolium bromide (MTT) assay and the human foreskin fibroblast cells were used in this test. The cells were cultured with a density of 8×10^3 cells per well of a 96-well plate. After cultured for 1 day, cultured medium of the cells was replaced by fresh medium containing TPGS, peanut oil or the TAP-nanoemulsion. The cells were than incubated for another 24 hrs and cell viability was determined by MTT assay.

**Q.** How did the cell viability turn out when “D-α-tocopherol polyethylene glycol succinate [TPGS]” was run?
**A.** Its cell viability is “less than 10%”.
